Source: patent publication US20110269811A1, “INHIBITORS OF SEMICARBAZIDE-SENSITIVE AMINE OXIDASE (SSAO) AND VAP-1 MEDIATED ADHESION USEFUL FOR TREATMENT AND PREVENTION OF DISEASES” (priority 2006, published 2011)

The chains behind the UniProt entries cited, without tags or fusion partners.
UniProt Q16853, whole entry: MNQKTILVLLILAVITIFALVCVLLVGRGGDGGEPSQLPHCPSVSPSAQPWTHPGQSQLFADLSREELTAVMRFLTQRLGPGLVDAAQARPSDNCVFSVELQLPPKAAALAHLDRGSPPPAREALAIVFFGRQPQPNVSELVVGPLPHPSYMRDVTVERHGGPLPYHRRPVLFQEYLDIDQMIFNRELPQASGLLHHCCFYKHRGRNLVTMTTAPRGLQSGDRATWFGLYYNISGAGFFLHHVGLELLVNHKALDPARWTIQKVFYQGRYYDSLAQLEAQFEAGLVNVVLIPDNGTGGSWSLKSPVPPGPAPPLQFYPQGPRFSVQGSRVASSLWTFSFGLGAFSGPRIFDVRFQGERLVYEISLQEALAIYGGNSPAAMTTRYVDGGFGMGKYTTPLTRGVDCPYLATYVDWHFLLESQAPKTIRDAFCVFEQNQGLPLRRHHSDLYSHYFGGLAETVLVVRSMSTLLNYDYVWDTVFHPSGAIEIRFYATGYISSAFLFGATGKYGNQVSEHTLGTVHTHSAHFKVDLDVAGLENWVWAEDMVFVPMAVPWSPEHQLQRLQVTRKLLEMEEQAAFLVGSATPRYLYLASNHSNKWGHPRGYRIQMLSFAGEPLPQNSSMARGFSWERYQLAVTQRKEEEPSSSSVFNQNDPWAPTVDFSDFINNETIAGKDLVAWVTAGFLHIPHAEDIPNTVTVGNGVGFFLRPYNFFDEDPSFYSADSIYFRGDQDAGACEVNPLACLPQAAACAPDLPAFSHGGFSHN
UniProt P21397, whole entry: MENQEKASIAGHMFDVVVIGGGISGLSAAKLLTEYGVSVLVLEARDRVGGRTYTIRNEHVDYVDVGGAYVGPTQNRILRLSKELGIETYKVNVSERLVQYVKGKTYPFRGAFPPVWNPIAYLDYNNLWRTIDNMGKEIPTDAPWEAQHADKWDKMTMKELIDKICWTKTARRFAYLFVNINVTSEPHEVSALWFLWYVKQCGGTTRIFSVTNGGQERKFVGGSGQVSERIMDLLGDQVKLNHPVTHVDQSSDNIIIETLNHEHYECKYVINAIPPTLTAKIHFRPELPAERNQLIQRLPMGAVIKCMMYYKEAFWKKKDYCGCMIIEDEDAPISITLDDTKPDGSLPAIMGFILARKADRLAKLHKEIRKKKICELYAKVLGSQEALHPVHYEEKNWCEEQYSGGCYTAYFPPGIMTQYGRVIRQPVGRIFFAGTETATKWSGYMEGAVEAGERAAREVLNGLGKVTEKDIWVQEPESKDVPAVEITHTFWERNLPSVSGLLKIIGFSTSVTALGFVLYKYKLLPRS
UniProt P27338, whole entry: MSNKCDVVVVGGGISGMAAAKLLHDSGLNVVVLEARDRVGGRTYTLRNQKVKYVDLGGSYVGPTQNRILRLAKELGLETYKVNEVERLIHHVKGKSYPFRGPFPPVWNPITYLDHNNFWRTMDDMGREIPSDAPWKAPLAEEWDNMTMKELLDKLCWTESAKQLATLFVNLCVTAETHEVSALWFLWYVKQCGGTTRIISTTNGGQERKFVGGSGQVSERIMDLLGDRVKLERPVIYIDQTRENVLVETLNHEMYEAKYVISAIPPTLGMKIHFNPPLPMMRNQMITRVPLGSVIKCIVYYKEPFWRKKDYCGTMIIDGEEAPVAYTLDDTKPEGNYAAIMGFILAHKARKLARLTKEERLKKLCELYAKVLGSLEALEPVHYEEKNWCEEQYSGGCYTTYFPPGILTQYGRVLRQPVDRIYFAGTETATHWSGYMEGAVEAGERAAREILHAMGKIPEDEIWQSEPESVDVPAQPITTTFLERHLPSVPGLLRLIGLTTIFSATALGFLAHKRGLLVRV

Experiments:
Human SSAO = Human SSAO (Homo sapiens, UniProt Q16853); experiment: In vitro inhibition of SSAO activity, human umbilical cord homogenate, 14C-benzylamine; details: read-out: Human SSAO IC50, tested form: HCl
Recombinant human MAO-A = Recombinant human MAO-A (Homo sapiens, UniProt P21397); experiment: MAO-A activity, colorimetric method, tyramine substrate; format: biochemical; details: tested form: HCl
Method: The specificities of the different SSAO inhibitors was tested by determining their abilities to inhibit MAO-A and MAO-B activities in vitro. Recombinant human MAO-A and human MAO-B enzymes were obtained from BD Biosciences (MA, USA). MAO activity was measured using the colorimetric method essentially as described (Holt, A. et al. (1997) Anal. Biochem. 244: 384). A pre-determined amount of inhibitor diluted in 0.2M potassium phosphate buffer, pH 7.6, was added to each well, if required. The amount of inhibitor varied in each assay but was generally at a final concentration of between 1 nM and 1 mM. Controls lacked inhibitor. The following agents were then added to a final reaction volume of 200 μL in 0.2M potassium phosphate buffer, pH 7.6: 0.04 mg/ml of MAO-A or 0.07 mg/ml MAO-B enzyme, 15 μL of 10 mM tyramine substrate (for MAO-A), or 15 μL 100 mM benzylamine substrate (for MAO-B), and 50 μL of freshly made chromogenic solution. […] The increase in absorbance, reflecting MAO activity, was measured at 490 nm using microplate spectrophotometer (Power Wave 40, Bio-Tek Inst.). Inhibition was presented as percent inhibition compared to control after correcting for background absorbance and IC50 values calculated using GraphPad Prism software. […]

human MAO-B = human MAO-B (Homo sapiens, UniProt P27338); experiment: MAO-B activity, colorimetric method, benzylamine substrate; format: biochemical; details: tested form: HCl

## COc1cccc(OC/C=C(/F)CN)c1 [II-19-E, (E)-2-fluoro-4-(3-methoxyphenoxy)but-2-en-1-amine]
Human SSAO
  IC50: 0.75 µM
Recombinant human MAO-A; ratio of IC50 for MAO-A to IC50 for SSAO
  Specificity of SSAO on MAO-A: >1333
Recombinant human MAO-A; read-out: Human MAO-A IC50, recombinant human MAO-A
  IC50: > 1000 µM
Human MAO-B; ratio of IC50 for MAO-B to IC50 for SSAO
  Specificity of SSAO on MAO-B: 1333
Human MAO-B; read-out: Human MAO-B IC50, recombinant human MAO-B
  IC50: 1000 µM
